{"source": "paper PMC3996367", "about": "“Profiling of drugs and environmental chemicals for functional impairment of neural crest migration in a novel stem cell-based test battery” (Archives of Toxicology, 2014)", "key": {"[1]": {"system": "hESC-derived neural crest cells (NCC)", "settings": "human"}, "[2]": {"system": "HEK293 cells", "settings": "human"}, "[3]": {"system": "mESC-derived neural stem cells (mESCn)", "settings": "mouse"}}}
{"smiles": "CCCCc1oc2ccccc2c1C(=O)c1cc(I)c(OCCN(CC)CC)c(I)c1", "note": "[Amiodarone]", "values": [{"measurement": "Concentration for hit finding in NCC (highest non-cytotoxic concentration in the UKN2 test system)", "setting": "[1]", "value": 10, "unit": "µM"}, {"measurement": "Highest non-cytotoxic conc. in HEK293", "setting": "[2]", "value": 10.0, "unit": "µM"}, {"measurement": "Highest non-cytotoxic conc. in mESCn", "setting": "[3]", "value": 460.0, "unit": "nM"}]}
